Data published in PubChem BioAssay AID588473 (Sanford-Burnham Center for Chemical Genomics, 2011).
The entries are a selection whose mix differs from that of the whole data set. Active and inactive are the calls of the source.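 The calls were made as follows: active = activation of at least 50%, plus an integration ratio under a set limit after plate pattern correction; inactive = the rest.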

System: CRF-binding protein / CRF receptor 2 complex (human)
Assay: agonists of CRF-BP/CRF-R2 complex, primary screen, cell-based, HEK293, calcium dye fluorescence, uHTS (AID 588473);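 also: plate controls were neutral control wells without compound for no effect and CRF at EC100 for full effect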
Conditions: calcium dye fluorescence (FLIPR), at 13.2 µM, stronger effect = higher value, percent of saturating CRF peptide response

| SMILES | activation |
| --- | --- |
| Cc1c2c(nc3ccccc13)SC(C(Cl)Cl)C2 (stereo not drawn) | inactive: 0.38% |
| Cc1cc(=O)[nH]c(N[N+](=O)[O-])n1 | inactive: 0.63% |
| O=C(OC1CN2CCC1CC2)C12CC3CC(CC(C3)C1)C2 (stereo not drawn) | inactive: 9.85% |
| O=P1(N(CCCl)CCCl)OCCCN1CCCl (stereo not drawn) | inactive: 0.04% |
| O=P1(N(CCCl)CCCl)Nc2ccccc2N1 | inactive: 6.32% |
| COc1cc(I)ccc1[As](=O)(O)O | inactive: -0.65% |
| COc1ccc2nc(NP(=O)(c3ccccc3)c3ccccc3)sc2c1 | inactive: -1.29% |
| CSc1ccc(Nc2c([N+](=O)[O-])cc([N+](=O)[O-])cc2[N+](=O)[O-])cc1 | inactive: 40.1% |
| O=C(OC1CN2CCC1CC2)c1cccc([N+](=O)[O-])c1 (stereo not drawn) | inactive: 0.22% |
| CCOC(=O)c1ccc(NC(=O)C(C)(CCl)SC)cc1 (stereo not drawn) | inactive: -1.39% |
| CCC(C)N(CC(C)C)C(=S)SC(NC(C)=O)C(Cl)(Cl)Cl (stereo not drawn) | inactive: -2.39% |
| COP1(=S)c2c(C)nn(CCC#N)c2N=C(c2ccc(F)cc2)N1C (stereo not drawn) | inactive: -0.05% |
| O=C(O)C(=O)c1ccc(N(CCCl)CCCl)cc1 | inactive: 2.38% |
| O=C(Nc1ccncc1[N+](=O)[O-])c1ccc([N+](=O)[O-])cc1[N+](=O)[O-] | inactive: -0.74% |
| O=C(COc1ccccc1)OC1CN2CCC1CC2 (stereo not drawn) | inactive: 2.37% |
| CCOC(=O)Nc1cccc([As](=O)(O)O)c1 | inactive: 0.34% |
| O=P(Nc1ccccn1)(c1cccc2ccccc12)c1cccc2ccccc12 | inactive: 31.1% |
| Cc1cc(SC(NC=O)C(Cl)(Cl)Cl)ncn1 (stereo not drawn) | inactive: 0.84% |
| O=[N+]([O-])c1ccc(Nc2ccc(Oc3ccc([N+](=O)[O-])cc3[N+](=O)[O-])cc2)c([N+](=O)[O-])c1 | inactive: -0.55% |
| CCOC(=O)Nc1ccc([As](=O)(O)O)c(O)c1 | inactive: 3.16% |
| O=C(O)C(O)c1ccc(N(CCCl)CCCl)cc1 (stereo not drawn) | inactive: 2.44% |
| CC1CCNP(=O)(N(CCCl)CCCl)O1 (stereo not drawn) | inactive: -2.04% |
| COP(=O)(OC)N1CC1c1ccccc1 (stereo not drawn) | inactive: 1.96% |
| Cc1cc(SC(NC(=O)c2ccccc2)C(Cl)(Cl)Cl)nc(C(C)C)n1 (stereo not drawn) | inactive: -1.51% |
| CCCCOc1ccc(C(=O)NCC2(N3CCCCC3)CCCCC2)cc1OC | active: 57.1% |
| O=P1(Nc2ncccn2)COc2ccccc2OC1 | inactive: 0.77% |
| Nc1cccc([As](=O)(O)c2ccccc2)c1 | inactive: -3.12% |
| Cc1ccc(OCC(=O)OC2CN3CCC2CC3)cc1 (stereo not drawn) | inactive: -1.46% |
